1 substance from patent publication US20210275698A1, “COMPOUNDS AND COMPOSITIONS FOR TARGETING MACROPHAGES AND OTHER MANNOSE-BINDING C-TYPE LECTIN RECEPTOR HIGH EXPRESSING CELLS AND METHODS OF TREATING AND DIAGNOSIS USING SAME” (priority 2015, published 2021) can be followed below.

The test deals with KS tumor cells and CD206+ TAMs. Conditions: confocal microscopy of fresh KS organ culture.

As to “dextran 3-[(2-aminoethyl)thio]propyl 17-carboxy-10,13,16-tris(carboxymethyl)-8-oxo-4-thia-7,10,13,16-tetraazaheptadec-1-yl 3-[[2-[[1-imino-2-(D-mannopyranosylthio)ethyl]amino]ethyl]thio]propyl ether complexes [tilmanocept]”, the “uptake into KS tumor cells and CD206+ TAMs” value was “confirmed the uptake”.
